This data set is described as follows: Population pharmacokinetics (PopPK) modeling. Further details: species or system human. Particulars: after sc Risperidone formulation.

The structures appear in SMILES notation.

Consider `Cc1nc2n(c(=O)c1CCN1CCC(c3noc4cc(F)ccc34)CC1)CCCC2` [risperidone], for which the “final PopPK model estimate for clearance (CL)” value is listed as 14.3 L/h.

Source of the values: patent US12329851B2, “Long acting injectable formulation comprising risperidone and biodegradable polymers” (MedinCell S.A., priority 2021, dated 2025).
